Biological target: T1, LTA4H (Homo sapiens, UniProt P09960)
T1 sequence (P09960 1-611): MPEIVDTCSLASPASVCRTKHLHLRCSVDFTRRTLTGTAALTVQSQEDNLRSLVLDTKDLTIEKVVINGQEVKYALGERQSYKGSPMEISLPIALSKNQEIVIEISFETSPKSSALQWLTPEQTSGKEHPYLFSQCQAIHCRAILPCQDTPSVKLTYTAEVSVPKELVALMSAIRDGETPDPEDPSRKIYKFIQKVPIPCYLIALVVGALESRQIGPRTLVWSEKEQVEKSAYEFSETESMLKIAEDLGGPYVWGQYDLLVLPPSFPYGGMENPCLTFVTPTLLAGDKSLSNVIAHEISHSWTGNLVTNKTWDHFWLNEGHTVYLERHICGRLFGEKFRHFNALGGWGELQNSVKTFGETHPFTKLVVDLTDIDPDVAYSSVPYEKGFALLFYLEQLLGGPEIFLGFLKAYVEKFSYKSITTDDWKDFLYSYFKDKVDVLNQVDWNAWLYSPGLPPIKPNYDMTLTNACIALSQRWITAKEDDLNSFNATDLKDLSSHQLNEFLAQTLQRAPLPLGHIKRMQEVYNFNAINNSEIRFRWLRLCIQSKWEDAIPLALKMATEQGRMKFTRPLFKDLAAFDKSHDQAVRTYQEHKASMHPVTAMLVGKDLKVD
Assay: PGP degradation assay in human blood
Assay type: cell-based
Parameters: Fresh blood was collected in heparinized tubes by venipuncture from volunteers; from tissue; host or cells: fresh human whole blood from volunteers, diluted 1:3 in RPMI
Settings: DG-051 20 µM, after 24 h
Procedure: Fresh blood was collected in heparinized tubes by venipuncture from volunteers from the Novartis Blood Donor Center, Basel. The blood was diluted 1:3 in Roswell Park Memorial Institute (RPMI) containing HEPES (0.025 M). […] PGP and LPS were added at final concentrations of 2 µg/ml each and incubated up to 24 h at 37 °C, 5% CO2 and 90% humidity before samples were collected for LC-MS/MS analysis.

## O=C(O)CCCN1CCC[C@H]1COc1ccc(Oc2ccc(Cl)cc2)cc1 [DG-051, 4-[(2S)-2-{[4-(4-chlorophenoxy)phenoxy]methyl}-1-pyrrolidinyl]butanoic acid]
  initial PGP levels still remaining: over 60%

From PMC5648829 (Scientific Reports, 2017)
